{"sequences": {"note": "Protein sequences, listed by entry. Tags and fused reporters are not part of them.", "UniProt Q9NZJ5, whole entry": "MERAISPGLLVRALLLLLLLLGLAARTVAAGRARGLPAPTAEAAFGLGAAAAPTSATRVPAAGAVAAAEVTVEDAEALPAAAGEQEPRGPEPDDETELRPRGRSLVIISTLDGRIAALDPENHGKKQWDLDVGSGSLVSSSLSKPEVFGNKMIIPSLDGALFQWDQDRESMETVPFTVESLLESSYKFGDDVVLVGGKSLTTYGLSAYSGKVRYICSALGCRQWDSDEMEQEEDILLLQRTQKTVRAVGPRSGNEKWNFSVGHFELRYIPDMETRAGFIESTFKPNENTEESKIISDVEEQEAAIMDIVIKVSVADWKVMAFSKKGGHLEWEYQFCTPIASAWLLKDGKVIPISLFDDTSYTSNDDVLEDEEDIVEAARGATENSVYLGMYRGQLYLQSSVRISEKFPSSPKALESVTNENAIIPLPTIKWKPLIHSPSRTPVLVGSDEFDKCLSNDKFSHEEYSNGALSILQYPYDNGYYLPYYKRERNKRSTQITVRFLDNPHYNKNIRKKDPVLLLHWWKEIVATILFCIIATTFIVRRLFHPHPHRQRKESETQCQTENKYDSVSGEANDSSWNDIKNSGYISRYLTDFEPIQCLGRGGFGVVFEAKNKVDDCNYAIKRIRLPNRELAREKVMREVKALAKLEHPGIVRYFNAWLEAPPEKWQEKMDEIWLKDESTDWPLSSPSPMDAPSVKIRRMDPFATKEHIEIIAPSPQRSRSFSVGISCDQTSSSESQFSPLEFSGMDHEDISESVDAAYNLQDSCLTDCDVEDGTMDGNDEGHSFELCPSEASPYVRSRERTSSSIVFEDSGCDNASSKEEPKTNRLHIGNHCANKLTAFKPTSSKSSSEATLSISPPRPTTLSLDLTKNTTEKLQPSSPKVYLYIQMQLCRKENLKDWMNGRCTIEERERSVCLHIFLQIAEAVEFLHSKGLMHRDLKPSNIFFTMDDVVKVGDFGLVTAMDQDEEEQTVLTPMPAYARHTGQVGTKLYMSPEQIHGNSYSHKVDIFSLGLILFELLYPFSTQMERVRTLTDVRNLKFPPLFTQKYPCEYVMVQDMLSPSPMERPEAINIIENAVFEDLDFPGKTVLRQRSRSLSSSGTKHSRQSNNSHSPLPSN"}, "source": "PubChem BioAssay AID1416", "about": "(The Scripps Research Institute Molecular Screening Center, 2008)", "note": "The list shows a part of the results, in another mix than the full data. Some of these compounds have results that are not shown, active ones among them. Activity calls are given as the source filed them.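 How the source made its calls: active means inhibition above the mean inhibition of all tested compounds plus 3 SD, set separately per screening campaign (cut at about 2.9% in these data); inactive means the rest.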"}
{"target": "Eukaryotic translation initiation factor 2-alpha kinase 3 (Homo sapiens) (UniProt Q9NZJ5)", "experiment": "block of dimerizer-induced PERK translation repression, primary screen, PERK inhibitor project, CHO PERK-DD cells, SEAP luminescence, HTS (AID 1416);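 further: PERK kinase domain activated by AP20187 dimerizer at 100 nM; 0% = DMSO with dimerizer and 100% = rapamycin at 8.4 µM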", "details": "CHO PERK-DD fusion, SEAP luminescence translation reporter; at 5.6 µM; active compounds read high"}
{"compound": "O=C(OC1CN2CCC1CC2)C(CO)(c1ccccc1)c1ccccc1", "note": "(stereo unspecified)", "inhibition": "inactive: -0.63%"}
{"compound": "COc1ccc(Br)c(C(=O)NCC2(N3CCCCC3)CCCCC2)c1", "inhibition": "inactive: 1.63%"}
{"compound": "CN(C)c1cccc(C(=O)NCC2(N(C)C)CCCCC2)c1", "inhibition": "inactive: 0.04%"}
{"compound": "COc1cccc(C(=O)NCC2(N3CCCCC3)CCCCC2)c1", "inhibition": "inactive: -0.15%"}
{"compound": "Cc1ccccc1C(=O)NCC1(N2CCCCC2)CCCCC1", "inhibition": "inactive: -0.19%"}
{"compound": "CN(C)C1CCCC1OC(=O)C(O)(c1ccccc1)c1ccccc1", "note": "(stereo unspecified)", "inhibition": "inactive: 0.48%"}
{"compound": "C=CCN1CCN(CCOC(=O)C(O)(c2ccccc2)c2ccccc2)CC1", "inhibition": "inactive: 0.12%"}
{"compound": "CCN1CCCC(OC(=O)C2(O)c3ccccc3C=Cc3ccccc32)C1", "note": "(stereo unspecified)", "inhibition": "inactive: -0.47%"}
{"compound": "O=C(NCC1(N2CCCCC2)CCCCC1)c1cc([N+](=O)[O-])ccc1Cl", "inhibition": "inactive: -0.27%"}
{"compound": "CC(C)N1C(=O)CC2(CCN(CCOC(=O)C(O)(c3ccccc3)c3ccccc3)CC2)C1=O", "inhibition": "inactive: 1.14%"}
{"compound": "CCN(CC)CC(C)C(C)OC(=O)C(O)(c1ccccc1)c1ccccc1", "note": "(stereo unspecified)", "inhibition": "inactive: -0.97%"}
